Measurements published in US20240057587A1, “ORGANIC AMMONIUM SALT AND HYDROGEN-BONDING MATERIAL TREATMENT AGENT USING SAME” (MIYOSHI OIL & FAT CO.,LTD., priority 2019, published 2024).

Sequences of proteins named here, by UniProt entry; tags and fusion partners are left off. A change or cut given only in a name is not applied to a line headed by its entry.
UniProt P07374, whole entry, looked up: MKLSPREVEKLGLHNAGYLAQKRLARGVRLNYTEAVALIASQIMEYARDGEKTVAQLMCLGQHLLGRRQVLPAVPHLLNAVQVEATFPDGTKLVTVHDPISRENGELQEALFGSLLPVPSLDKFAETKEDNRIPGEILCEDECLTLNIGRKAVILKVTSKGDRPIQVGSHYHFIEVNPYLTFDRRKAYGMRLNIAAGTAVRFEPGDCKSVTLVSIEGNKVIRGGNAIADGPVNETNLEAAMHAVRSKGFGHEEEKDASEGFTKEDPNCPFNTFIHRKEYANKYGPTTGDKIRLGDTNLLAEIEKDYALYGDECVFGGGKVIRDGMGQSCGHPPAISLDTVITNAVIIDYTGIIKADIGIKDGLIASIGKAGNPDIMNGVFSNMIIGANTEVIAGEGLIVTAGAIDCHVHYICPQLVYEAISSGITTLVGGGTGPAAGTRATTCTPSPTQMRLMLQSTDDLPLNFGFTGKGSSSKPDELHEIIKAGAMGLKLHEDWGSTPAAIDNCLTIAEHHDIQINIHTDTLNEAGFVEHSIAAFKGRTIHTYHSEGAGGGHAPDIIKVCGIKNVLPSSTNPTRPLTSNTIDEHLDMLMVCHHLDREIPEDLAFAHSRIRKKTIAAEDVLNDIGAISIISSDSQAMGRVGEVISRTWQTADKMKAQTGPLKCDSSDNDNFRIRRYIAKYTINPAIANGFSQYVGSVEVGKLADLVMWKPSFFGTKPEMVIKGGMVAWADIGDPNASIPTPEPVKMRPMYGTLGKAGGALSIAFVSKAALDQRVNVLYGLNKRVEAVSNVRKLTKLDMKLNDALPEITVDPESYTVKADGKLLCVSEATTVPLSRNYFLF
UniProt P00004: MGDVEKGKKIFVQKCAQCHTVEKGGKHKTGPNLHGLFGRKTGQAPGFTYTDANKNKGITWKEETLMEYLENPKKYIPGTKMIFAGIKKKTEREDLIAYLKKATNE

Columns and labels:
urease [1] = target: T1, urease (Canavalia ensiformis, UniProt P07374); assay: Enzyme long-term stability (1): urease activity retention, solid sample; assay type: biochemical, sword bean; details: 40° C., 80% RH
urease [2] = target: T1, urease; assay: Enzyme long-term stability (1): urease activity retention, 50% aqueous solution; assay type: biochemical, sword bean; details: urease in 50 wt % aqueous solution of compound, 40° C., 80% RH
cytochrome C [3] = target: T2, cytochrome C (Equus caballus, UniProt P00004); assay: Protein long-term stability (IR and UV spectrum), solid sample; parameters: species or system Horse; details: 40° C., 80% RH
cytochrome C [4] = target: T2, cytochrome C; assay: Protein long-term stability, 50% aqueous solution; parameters: species or system Horse; details: cytochrome C in 50 wt % aqueous solution of compound, 40° C.
DNA = DNA long-term stability, 50% aqueous solution; details: 40° C., 80% RH
[5] = Metal oxide dispersibility test (zirconium oxide); assay type: physicochemical; details: 0.25 g compound, 0.50 g water, 0.10 g zirconium oxide (IV); visual
[6] = Metal oxide dispersibility test (titanium oxide); assay type: physicochemical; details: 0.25 g compound, 0.50 g water, 0.10 g titanium oxide (IV); visual
[7] = Carbon nanotube dispersibility test; assay type: physicochemical; details: 0.25 g compound, 0.75 g water, 0.025 g carbon nanotubes; visual
[8] = Organic dye dispersibility test; assay type: physicochemical; details: 0.2 g compound, 0.7 g water, 0.1 g Vali Fast Black 3830; ultrasonic dispersion; after 24 hours; visual
urease [9] = target: T1, urease; details: 40° C., 80% RH

OCCN(CCO)CCO
Enzyme activity retention rate(%) (after 30 days) Stabilizer: Enzyme = 0.1:1 (urease [1]; Stabilizer:Enzyme = 0.1:1): 14%
Enzyme activity retention rate(%) (after 30 days) Stabilizer: Enzyme = 1:1 (urease [1]; Stabilizer:Enzyme = 1:1): 41%
Enzyme activity retention rate(%) (after 30 days) Stabilizer: Enzyme = 1:1 (urease [2]): 11%
Protein long-term stability (after 30 days) Stabilizer: Protein = 0.1:1 (cytochrome C [3]; Stabilizer:Protein = 0.1:1): ◯
Protein long-term stability (after 30 days) Stabilizer: Protein = 1:1 (cytochrome C [3]; Stabilizer:Protein = 1:1): ◯
Protein long-term stability (after 30 days) Stabilizer: Protein = 10:1 (cytochrome C [3]; Stabilizer:Protein = 10:1): ◯
Protein long-term stability (after 30 days) Stabilize:Protein = 1:1 (cytochrome C [4]): ○
DNA long-term stability (after 30 days) Stabilizer: DNA = 1:1 (DNA): ○
Zirconium oxide dispersibility [5]: ○
Titanium oxide dispersibility [6]: ○
Carbon nanotube dispersibility [7]: ○
Dye dispersibility [8]: ○
Enzyme activity retention rate (%) (after 30 days) Stabilizer:Enzyme = 1:1, Mixed by mortar (urease [9]; solid sample mixed by mortar): 5%
Enzyme activity retention rate (%) (after 30 days) Stabilizer:Enzyme = 1:1, Solvent distilled away from dissolution solution (urease [9]; solid sample, solvent distilled away from dissolution solution): 41%
